Test results: US20030114375A1, “Method for treating cystic fibrosis” (The Government of the USA, Dept of Health and Human …, priority 1994, published 2003)

Amino acid sequences for entries named in this document (tags omitted).
UniProt P25099, whole entry: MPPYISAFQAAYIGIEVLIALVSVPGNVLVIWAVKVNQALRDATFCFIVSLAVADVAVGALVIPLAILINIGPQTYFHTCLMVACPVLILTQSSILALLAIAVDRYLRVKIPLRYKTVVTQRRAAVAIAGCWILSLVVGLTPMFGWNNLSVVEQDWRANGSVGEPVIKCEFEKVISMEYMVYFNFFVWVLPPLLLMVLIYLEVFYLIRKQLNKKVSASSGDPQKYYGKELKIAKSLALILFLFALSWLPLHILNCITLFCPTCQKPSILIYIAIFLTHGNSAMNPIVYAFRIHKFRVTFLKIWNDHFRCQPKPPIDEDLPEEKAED

Biological target: T1, A1-adenosine receptor (Rattus norvegicus, UniProt P25099)
T1 construct: Rat cerebral cortical membranes and striatal membranes were prepared; from tissue; host or cells: rat cerebral cortex membranes
Experiment: Inhibition of [3H]N6-phenylisopropyladenosine binding to A1 receptors
Conditions: rat cerebral cortex membranes, 1 nM [3H]PIA

“3-isobutylmethyl xanthine [Compound 3, reference compound]” showed a Ki of 7 µM.
